For assay [1], the target named is T1, Delta-type opioid receptor (Homo sapiens, UniProt P41143). Particulars: HEK293, at 100 µM.
The target in assay [2] is T2, Mu-type opioid receptor (Homo sapiens, UniProt P35372). Particulars: HEK293, at 1 µM.
Assay [3] concerns the target T2, Mu-type opioid receptor. As to conditions: HEK293, at 100 µM.
The target in assay [4] is T1, Delta-type opioid receptor. Particulars: HEK293, at 100 µM. This is another data set of the same source.
Assay [5] concerns the target Kappa-type opioid receptor (Homo sapiens, UniProt P41145). Particulars: HEK293, at 0.1 to 10 µM.
For assay [6], the target named is T1, Delta-type opioid receptor. As to conditions: HEK293, at 0.1 to 10 µM.

Sequences of proteins named here, by UniProt entry; tags and fusion partners are left off. A change or cut given only in a name is not applied to a line headed by its entry.
UniProt P41143, whole entry: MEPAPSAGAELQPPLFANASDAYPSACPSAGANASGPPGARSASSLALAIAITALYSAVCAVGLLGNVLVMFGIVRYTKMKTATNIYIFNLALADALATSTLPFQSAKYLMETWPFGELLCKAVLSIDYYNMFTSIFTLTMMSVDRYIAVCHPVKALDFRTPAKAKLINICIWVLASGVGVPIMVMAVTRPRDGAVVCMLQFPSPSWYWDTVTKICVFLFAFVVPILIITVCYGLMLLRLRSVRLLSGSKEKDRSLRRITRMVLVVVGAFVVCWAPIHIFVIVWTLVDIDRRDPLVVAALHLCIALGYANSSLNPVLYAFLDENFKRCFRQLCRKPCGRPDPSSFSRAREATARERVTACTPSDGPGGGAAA
UniProt P35372, whole entry: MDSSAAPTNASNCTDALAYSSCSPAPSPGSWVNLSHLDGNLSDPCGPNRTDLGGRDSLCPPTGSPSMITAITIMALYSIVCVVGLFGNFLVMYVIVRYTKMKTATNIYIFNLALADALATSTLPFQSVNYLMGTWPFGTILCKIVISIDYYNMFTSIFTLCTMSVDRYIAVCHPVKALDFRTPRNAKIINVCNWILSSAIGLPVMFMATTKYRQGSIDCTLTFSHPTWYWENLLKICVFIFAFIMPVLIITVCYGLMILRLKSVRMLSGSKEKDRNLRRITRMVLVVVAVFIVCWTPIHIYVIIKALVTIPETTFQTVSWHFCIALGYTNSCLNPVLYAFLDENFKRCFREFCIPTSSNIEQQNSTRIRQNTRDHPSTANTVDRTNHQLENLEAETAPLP
UniProt P41145: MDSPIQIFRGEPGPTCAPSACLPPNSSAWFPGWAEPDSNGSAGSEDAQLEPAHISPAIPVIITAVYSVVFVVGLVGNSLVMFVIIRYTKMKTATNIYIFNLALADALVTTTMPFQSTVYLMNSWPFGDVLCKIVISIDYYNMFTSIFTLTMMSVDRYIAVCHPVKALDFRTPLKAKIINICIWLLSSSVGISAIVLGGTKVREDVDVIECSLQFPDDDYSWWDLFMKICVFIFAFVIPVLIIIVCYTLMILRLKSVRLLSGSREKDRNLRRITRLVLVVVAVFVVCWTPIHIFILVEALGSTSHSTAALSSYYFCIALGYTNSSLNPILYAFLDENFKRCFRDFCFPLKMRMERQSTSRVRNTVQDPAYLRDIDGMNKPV

Active and inactive are the calls of the source. The rule behind the calls is not given here.

Our source for the inhibition values is ChEMBL document CHEMBL3232856, “Endomorphin analogues with mixed μ-opioid (MOP) receptor agonism/δ-opioid (DOP) receptor antagonism and lacking β-arrestin2 recruitment activity” (Bioorg Med Chem, 2014).

For orientation: inhibition means the change of the read-out against control, counted positive when it falls.

In the case of `Cc1cccc(C)c1C[C@H](NC(=O)[C@@H]1CCCN1C(=O)[C@@H](N)Cc1c(C)cc(O)cc1C)C(N)=O`, the inhibition entry (in assay [1]; at Mu-type opioid receptor [3]; in assay [4]; in assay [5]; in assay [6]) was “inactive” in each case. The inhibition result on Mu-type opioid receptor [2] is “Active”.
Regarding `Cc1cc(O)cc(C)c1C[C@H](N)C(=O)N1CCC[C@H]1C(=O)N[C@@H](Cc1cccc2ccccc12)C(N)=O`, the inhibition result in assay [1], in assay [5] and in assay [6] was “inactive” in each case. For the same molecule, the inhibition entry at Mu-type opioid receptor [2] and at Mu-type opioid receptor [3] was “Active” in each case. The inhibition in assay [4] is 93.2%.
